Assay results: US20230293519A1, “INTEGRIN INHIBITORS AND USES THEREOF IN COMBINATION WITH OTHER AGENTS” (Pliant Therapeutics, Inc., priority 2021, published 2023)

Test system: Type I Collagen gene Col1a1 expression
Assay: Precision cut lung slices of mice under acute bleomycin exposure
Assay type: cell-based, mouse
Method: Mice (C57BL/6) were administered 3 U/kg of bleomycin (Teva Pharmaceuticals; North Wales, PA) on day 0 via oropharyngeal aspiration while under anesthesia. On day 14, precision cut lung slices were obtained. Following euthanization, 2% low gelling temp agarose was injected into the mouse lungs via the trachea. […] The lobes were then subjected to precision slicing to obtain samples for culture using a microtome (Compresstome VF-300-0Z, Precisionary; Greenville, NC). Individual slices were distributed in a multiwell culture plate and cultured for 3 days under control (DMSO) and test compound conditions.

Cc1cc(C)n(-c2cccc([C@H](CC(=O)O)CN3CC[C@H](CCc4ccc5c(n4)NCCC5)C3)c2)n1 [first pan-αv small molecule inhibitor, (3S)-3-[3-(3,5-dimethyl-1H-pyrazol-1-yl)phenyl]-4-{(3S)-3-[2-(5,6,7,8-tetrahydro-1,8-naphthyridin-2-yl)ethyl]-1-pyrrolidinyl}butanoic acid]
Type I Collagen gene Col1a1 expression vs DMSO control: reduced
